# Reference: US11673889B2, “Substituted imidazo[4,5-c][1,8]naphthyridines as phosphodiesterase inhibitors” (Nanjing Zhengxiang Pharmaceuticals Co., Ltd., priority 2019, dated 2023)
# Molecular target: T1, ENPP-1, MDA-MB-231 cells (Homo sapiens, UniProt P22413)
# T1 sequence (P22413 1-925): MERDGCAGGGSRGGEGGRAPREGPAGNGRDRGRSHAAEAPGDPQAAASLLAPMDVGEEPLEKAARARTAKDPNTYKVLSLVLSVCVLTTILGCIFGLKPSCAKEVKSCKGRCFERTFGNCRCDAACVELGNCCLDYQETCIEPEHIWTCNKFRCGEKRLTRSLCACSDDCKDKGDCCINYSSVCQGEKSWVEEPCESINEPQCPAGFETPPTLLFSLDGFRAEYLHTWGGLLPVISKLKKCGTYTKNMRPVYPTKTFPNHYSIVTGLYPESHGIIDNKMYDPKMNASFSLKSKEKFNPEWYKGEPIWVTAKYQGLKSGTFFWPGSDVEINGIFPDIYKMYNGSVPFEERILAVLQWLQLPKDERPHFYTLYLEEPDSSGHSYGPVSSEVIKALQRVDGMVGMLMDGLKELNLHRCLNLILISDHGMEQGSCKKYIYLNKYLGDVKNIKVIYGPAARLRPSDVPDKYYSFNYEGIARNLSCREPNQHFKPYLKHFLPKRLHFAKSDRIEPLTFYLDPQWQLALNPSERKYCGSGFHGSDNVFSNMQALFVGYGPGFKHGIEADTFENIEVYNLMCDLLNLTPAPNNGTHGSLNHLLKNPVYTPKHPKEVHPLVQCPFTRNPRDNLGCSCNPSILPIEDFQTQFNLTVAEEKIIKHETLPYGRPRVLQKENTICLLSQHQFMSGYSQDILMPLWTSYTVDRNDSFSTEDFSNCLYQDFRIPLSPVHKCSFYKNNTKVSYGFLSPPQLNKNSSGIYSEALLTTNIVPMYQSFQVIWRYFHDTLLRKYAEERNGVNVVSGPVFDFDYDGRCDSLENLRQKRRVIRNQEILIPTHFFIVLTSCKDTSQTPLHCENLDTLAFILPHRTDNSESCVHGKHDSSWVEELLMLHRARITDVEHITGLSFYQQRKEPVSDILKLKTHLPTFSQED
# Assay: cell-based
# Protocol: ENPP-1 were mainly expressed on the surface of cell membrane where it hydrolytes 2′3′-cGAMP to generate 5′-GMP and 5′-AMP. ENPP-1 also has the ability to hydrolyzes artificial phosphoric acid ester TMP-pNP to nucleotide-5′-monophosphate and p-nitrophcnol there, which is a chromogenic product.
# 8 point of different concentrations of each inhibitor were prepared with the final assay concentrations starting at 20 μM. 3× series dilution by DMEM medium without FBS was applied. Prior to adding inhibitors, 75000 cells per well were incubated at 37° C., 5% CO2 in DMEM for 24 hours. After removing the supernatant medium, 50 μL inhibitor solution was added into each well with cultured cells and incubate at 37° C., 5% CO2 for 60 minutes.
# The IC50 values for percent inhibition versus compound concentration are determined by fitting the inhibition curves using a four-parameter variable slope model in GraphPad Prism® 8.
smiles,measurement,setting,value
"COc1ccc2c(ncc3[nH]c(=O)n(Cc4ccc(P(=O)(O)OC)c(F)c4)c32)n1 [Compound 127, methyl hydrogen (2-fluoro-4-((7-methoxy-2-oxo-2,3-dihydro-1H-imidazo[4,5-c][1,8]naphthyridin-1-yl)methyl)phenyl)phosphonate]",IC50,,0.081 µM
same,inhibition at 20 µM,"MDA-MB-231, read-out: % Inhibition (at 20 μM)",78%
